scFv variants of Ab-14 (light chain) against a SARS-CoV-2 spike peptide

All variants were tested on one target, the spike HR2 peptide PDVDLGDISGINAS (SARS-CoV-2).

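The variants were designed computationally from a first round of random CDR variants and then made and measured. Their group label is 14L_GP_Gibbs (GP: Gaussian process model; Gibbs: Gibbs sampling; a sequence that several methods proposed may carry one label only). In AlphaSeq, yeast of one mating type display the scFv and yeast of the other type display the target. Pairs that bind mate more often; barcode pairs of the diploids are counted by sequencing. Each replicate has its own calibration line, from reference interactions of the BCL2 family. There are six technical replicates.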

Ab-14 is the parent antibody, in scFv form: VH, then three GGGGS repeats, then VL. The heavy chain is unchanged in all variants.
VH: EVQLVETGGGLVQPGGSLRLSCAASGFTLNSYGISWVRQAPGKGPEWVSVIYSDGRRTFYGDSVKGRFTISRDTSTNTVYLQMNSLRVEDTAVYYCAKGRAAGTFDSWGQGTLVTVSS
VL: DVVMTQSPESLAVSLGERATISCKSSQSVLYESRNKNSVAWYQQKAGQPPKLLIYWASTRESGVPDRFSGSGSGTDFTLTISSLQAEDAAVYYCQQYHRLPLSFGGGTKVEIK

The parent's light chain CDRs are KSSQSVLYESRNKNSVA, WASTRES, QQYHRLPLS; each variant's own CDRs replace them letter for letter. Values are log10 of the apparent Kd in nM; lower means stronger binding. Where no diploid with the target was found in that replicate, the entry reads "ND": below detection, most likely a poor binder, though not proof of it. A sequence measured in both rounds can read differently, since the two assays cover different ranges. Three control strains display no target. For all light chain designs, 4% of the pairings with them gave a signal, with a median of 2.64 and one signal in twenty below 1.59, so weak values seen in few replicates may be background. Also given: how often the same scFv was detected with the empty control strains, with their mean in brackets. The authors averaged sequences with at least three values out of six and counted those with two or fewer as poor binders.

CDR-L1,CDR-L2,CDR-L3,"replicates, log10 nM",control signals
KLSQSVKYEDRNWNNVA,NASTRES,QDYHRLPLS,-0.23 / -0.27 / -0.40 / -0.40 / -0.27 / -0.17,0/18
KLSQSGLYEMRNKMSVA,QASQRLS,QQYHRLPLS,0.12 / 0.10 / -0.02 / -0.05 / 0.00 / 0.11,0/18
KLSPSQLYWSRNFNSVA,QASTRET,QQYHRLPLS,2.77 / 2.45 / 1.14 / 1.18 / 1.80 / 1.75,0/18
KMSQENPYESRNSNSVA,HASTREM,QQYHRLPLS,0.01 / -0.08 / -0.10 / -0.17 / -0.21 / -0.04,1/18 (2.86)
KVSWSVGYGSRNKNSVA,EASTRMS,QQYHRLPLY,-0.04 / -0.37 / -0.09 / -0.28 / 0.05 / 0.11,0/18
KLQGSVLYESRNKNSVA,GASQRED,QQYHRLPLS,-0.26 / -0.48 / -0.41 / -0.60 / -0.36 / -0.37,0/18
KLSQSMPYEQRNKNSVA,NASLRES,QCYHRLPLS,1.31 / 1.44 / 0.63 / 1.20 / 1.42 / 1.11,1/18 (2.30)
KLSQSDLYESRNKNNVA,NASLREQ,QDYHRLPLS,-0.09 / -0.09 / -0.08 / -0.09 / -0.35 / 0.09,0/18
KCEQSSDYESRNKNSVA,NASTREV,QQYHRLPLS,0.24 / 0.06 / 0.22 / 0.19 / 0.25 / 0.19,1/18 (2.35)
KLSESWLYESQNSNNVA,DASTRMS,QQYHRLPLS,-0.01 / -0.21 / -0.36 / -0.31 / -0.42 / -0.06,0/18
KSDQSWLYGSRNKNSVA,NASERES,QQYHRLPLS,0.39 / 0.38 / 0.28 / 0.17 / 0.32 / 0.64,5/18 (3.02)
KFQQSWLYESRNKNSVA,NASCRES,QQYHRLPLS,-0.08 / -0.02 / -0.28 / -0.29 / -0.30 / -0.02,0/18
KLSQSKEYESRQKNSVA,NASTREL,QQYHRLPLS,0.42 / 0.25 / 0.30 / 0.10 / 0.25 / 0.30,0/18
KVQQSELGLSRMFNSVA,NASKRES,QQYHRLPLS,0.18 / 0.00 / 0.01 / -0.19 / -0.09 / 0.18,1/18 (2.68)
KLSNSYEYQSRNMNSVA,NASTRLS,QAYHRLPLS,0.99 / 0.96 / 0.59 / 0.50 / 0.85 / 0.65,0/18
ILQQSWGYQSRNKNSVA,NASTREW,QQYHRLPLS,0.90 / 1.14 / 0.96 / 1.20 / 1.23 / 0.90,0/18
KASPSQEYESRNKQSVA,HASLRLE,QQYHRLPLS,0.45 / 0.45 / 0.27 / 0.65 / 0.96 / 0.40,0/18
KISCSVYYGDRNKMSVA,DASQRES,QQYHRLPLS,0.58 / 0.39 / 0.47 / 0.95 / 0.22 / 0.72,0/18
KQSWSEDYGSRNKNSVA,DASQRES,QDYHRLPLS,0.20 / 0.23 / 0.47 / 0.23 / 0.23 / 0.62,0/18
KLSQSWGYQSRNKNSVA,NASTRED,QQYHRLPLS,0.31 / -0.87 / 0.32 / -0.07 / -0.01 / -0.25,0/18
KLMNSMLYESRNVNSVA,NASRRES,QQYHRLPLS,0.13 / -0.04 / -0.29 / -0.15 / -0.16 / 0.00,1/18 (2.14)
KYEFSELELSRNSNSVA,NASTREE,QQYHRLPLS,0.60 / 0.26 / 0.32 / 0.06 / 0.09 / 0.41,0/18
KISQSVPYEDRNFNSVA,HASYRCS,QQYHRLPLS,1.28 / 1.14 / 1.21 / 1.09 / 1.27 / 1.03,1/18 (2.42)
KLQQDVLYGSRNKNSVA,QASTRMV,QAYHRLPLS,0.62 / 0.30 / 0.17 / 0.25 / 0.21 / 0.49,0/18
KFFQSQLYEQRNQNNVA,SASTRED,QQYHRLPLS,-0.20 / -0.17 / -0.13 / -0.28 / -0.26 / -0.14,0/18
KLQQSWLYLSRNHNAVA,QASQRLS,QDYHRLPLS,0.18 / 0.09 / 0.38 / -0.25 / 0.07 / 0.18,0/18
KQQQGELMESRNKNSVA,HASERES,QQYHRLPLS,0.34 / 0.40 / 0.33 / 0.39 / 0.48 / 0.39,2/18 (3.83)
KYSQSVGYQSRNKWNVA,NASTRES,QQYHRLPLS,0.24 / 0.13 / 0.28 / 0.01 / 0.27 / 0.29,2/18 (3.33)
KVSPSELYEDRNKNSVA,QASQRCS,QQYHRLPLS,0.12 / -0.16 / -0.20 / -0.26 / -0.30 / -0.02,0/18
KLSQSVLYQMQQKNSVA,QASTRMS,QQYHRLPLS,0.47 / 0.24 / 0.08 / 0.13 / 0.10 / 0.32,1/18 (1.66)
KLSQSDLYEMRNKNSVA,EAQTREQ,QQYHRLPLS,-0.15 / -0.10 / -0.20 / -0.39 / -0.19 / 0.07,4/18 (3.17)
RMSQSVLQEERNDNSVA,SASTRCS,QQYHRLPLS,0.98 / 0.75 / 0.65 / 0.54 / 0.79 / 0.91,0/18
KLMQSTLYESRMANNVA,YASTREE,QQYHRLPLS,1.10 / 0.93 / 0.80 / 1.36 / 0.90 / 0.82,0/18
KLSQLGLYEQRNCNSVA,SASTRCS,QQYHRLPLS,0.60 / 0.37 / 0.37 / 0.21 / 0.08 / 0.80,1/18 (2.33)
KVSQKDPMGSRNKNSVA,HASVREQ,QQYHRLPLS,1.07 / 0.25 / 0.47 / 0.61 / 0.60 / 0.61,0/18
KQQFSGMGGSRNKNSVA,KASTRES,QQYHRLPLS,2.01 / 1.34 / 1.48 / 1.80 / 1.18 / 1.48,0/18
KWSQSVDLESRNDNSVA,NASCRED,QQYHRLPLS,0.82 / 0.81 / 0.90 / 0.99 / 0.76 / 1.24,1/18 (3.11)
KLQQSWMQQWRNKNSVA,NASTRLS,QQYHRLPLS,0.41 / 0.13 / 0.23 / 0.25 / -0.15 / 0.37,2/18 (3.26)
KWMQMVMQESRNKNSVA,HASTRMQ,QQYHRLPLS,1.49 / 1.58 / 0.78 / 0.65 / 0.65 / 0.37,0/18
KLQQSKEYLSRWKNSVA,HASVRES,QQYHRLPLS,2.35 / 1.84 / ND / 2.80 / ND / ND,1/18 (2.20)
KLMMSHLYESRNSNSVA,NASYREQ,QQYHRLPLS,0.65 / 0.44 / 0.59 / 0.40 / 0.75 / 0.75,0/18
HLSQSVWQESRNKNSVA,NASQRER,QQYHRLPLS,0.31 / 0.13 / 0.25 / 0.13 / -0.10 / 0.32,0/18
KLDQSVLGESRNKNSVA,HANQRES,QQYHRLPLY,-0.12 / -0.11 / -0.19 / -0.28 / -0.15 / -0.10,1/18 (3.79)
KLSQSWLYEERNKNNVA,SASQREM,QQYHRLPLS,-0.29 / -0.47 / -0.50 / -0.49 / -0.44 / -0.31,2/18 (2.42)
KLQQSWEYESRNSNSVA,QASTRMA,QQYHRLPLI,0.61 / 0.72 / 0.64 / 0.60 / 0.89 / 0.81,2/18 (2.83)
KSSQSWLGMDGNKNSVA,QASQRES,QQYHRLPLS,0.30 / 0.22 / 0.22 / 0.16 / 0.14 / 0.32,5/18 (3.36)
KQEQSVMGESRNKNSVA,NASTRMS,QQYHRLPLS,0.89 / 0.58 / 0.49 / 0.58 / 0.60 / 0.64,1/18 (2.34)
KSSWSVDYEDRNSNSVA,NASQRLW,QQYHRLPLS,0.01 / 0.05 / -0.20 / -0.18 / -0.08 / 0.15,1/18 (3.70)
KLEQGFLYEERNKNSVA,SASQRES,QQYHRLPLS,-0.19 / -0.40 / -0.54 / -0.64 / -0.52 / -0.29,0/18
KAQMLNLYEDRNKNSVA,NASTRED,QQYHRLPLS,-0.37 / 0.10 / ND / 1.19 / 0.14 / 0.57,0/18
KLSQLGLYGQRNKMSVA,DASTRED,QQYHRLPLS,0.31 / -0.21 / -0.21 / -0.15 / -0.19 / -0.25,0/18
KLQFSSGMLQRNKNSVA,SASTRES,QQYHRLPLS,0.30 / 0.16 / -0.13 / -0.08 / 0.14 / 0.27,1/18 (3.65)

Data: MIT Lincoln Laboratory AlphaSeq set, Li et al. 2023, doi:10.1038/s41467-023-39022-2, as distributed in FLAb.